Experimental data published in patent US10392346B2, “Kinase inhibitors” (Topivert Pharma Limited, priority 2014, dated 2019).

Test system: non-mutant kinases
Assay: KinomeScan selectivity scores
Type: binding
Details: 50 nM
Source text: These assays may be conducted by DiscoverX (formerly Ambit; San Diego, Calif.).

For `COc1cc(Nc2cc(Oc3ccc(NC(=O)Nc4cc(C(C)(C)C)cc(NS(C)(=O)=O)c4OC)c4ccccc34)ccn2)ccc1P(C)(=O)O` [Example 44, (4-((4-((4-(3-(5-(tert-Butyl)-2-methoxy-3-(methylsulfonamido)phenyl)ureido)naphthalen-1-yl)oxy)pyridin-2-yl)amino)-2-methoxyphenyl)(methyl)phosphinic acid], the “KinomeScan Selectivity Score S(1)” value (kinases with % Ctrl <1 / kinases tested) was 0.002 and the “KinomeScan Selectivity Score S(10)” value (kinases with % Ctrl <10 / kinases tested) was 0.074.
